Assay results from PubChem BioAssay AID902 (National Center for Advancing Translational Sciences (NCATS), 2007).
The list shows a part of the results, in another mix than the full data. Some results for these compounds are left out of this collection, so the calls shown say nothing about other tests. Results filed as inconclusive are left out. The source made the active and inactive calls. Calls come from the whole dose curve; as a rule, active = well fitted cell-killing curve with a large enough effect; inconclusive = small, poorly fitted or top-dose-only effect; inactive = no such curve, though single readings can be large or run the other way.

Assay: qHTS Screen for Compounds that Selectively Target Cancer Cells with p53 Mutations: Cytotoxicity of p53ts Cells at the Nonpermissive Temperature; note: nearly all actives have a fitted effect of over 55% in size
Details: H1299-p53A138V viability at 39C, ATP luminescence, 24 h; at 46.1 µM (top of the series) unless noted
% is set by controls: 0 for no effect and ±100 for the full control effect.

SMILES | activity change, negative = cell killing
CN(C)C1(CNC(=O)c2cccc(Cl)c2)CCCCC1 | inactive: 28.5%
CN(C)C1(CNC(=O)c2ccccc2F)CCCCC1 | inactive: 8%
CN(C)C1CCCC1OC(=O)C(O)(c1ccccc1)c1ccccc1 (configuration not stated) | inactive: 13.7%
CN(C)C1(CNC(=O)c2ccccc2[N+](=O)[O-])CCCCC1 | inactive: -2.85%
CCCCOc1ccccc1C(=O)NCC1(N(C)C)CCCCC1 | inactive: 14.9%
CCOc1cccc(C(=O)NCC2(N(C)C)CCCCC2)c1 | inactive: 36.7%
COc1ccc(C(=O)NCC2(N(C)C)CCCCC2)cc1Cl | inactive: -3.91%
CN1CC[C@H](OC(=O)[C@](O)(c2ccccc2)C2CCCC2)C1 | inactive: 9.44% [at 9.22 µM]
O=C(OC1CN2CCC1CC2)C(CO)(c1ccccc1)c1ccccc1 (configuration not stated) | inactive: 0.946%
CN1CCC[C@H](OC(=O)[C@](O)(c2ccccc2)C2CCCC2)C1 | inactive: 11.9% [at 9.22 µM]
COc1cccc(C(=O)NCC2(N3CCOCC3)CCCCC2)c1 | inactive: -6.73%
C=C(C)C#C[C@@](O)(C(=O)OC1CCN(C)CC1)c1ccccc1 | inactive: 6.98% [at 9.22 µM]
CC(C)COc1ccc(C(=O)NCC2(N(C)C)CCCCC2)cc1 | inactive: 11%
Cc1cccc(C(=O)NCC2(N(C)C)CCCCC2)c1 | inactive: 13.2%
COc1cc(C(=O)NCC2(N(C)C)CCCCC2)cc(OC)c1OC | inactive: 34.4%
CN(C)c1cccc(C(=O)NCC2(N(C)C)CCCCC2)c1 | inactive: 4.73%
CC(C)Oc1ccc(C(=O)NCC2(N(C)C)CCCCC2)cc1 | inactive: -1.14%
